Reference: ChEMBL document CHEMBL3390834, “Development of second generation epigenetic agents” (Medchemcomm, 2012)

Amino acid sequences for entries named in this document (tags omitted).
UniProt P21397, whole entry: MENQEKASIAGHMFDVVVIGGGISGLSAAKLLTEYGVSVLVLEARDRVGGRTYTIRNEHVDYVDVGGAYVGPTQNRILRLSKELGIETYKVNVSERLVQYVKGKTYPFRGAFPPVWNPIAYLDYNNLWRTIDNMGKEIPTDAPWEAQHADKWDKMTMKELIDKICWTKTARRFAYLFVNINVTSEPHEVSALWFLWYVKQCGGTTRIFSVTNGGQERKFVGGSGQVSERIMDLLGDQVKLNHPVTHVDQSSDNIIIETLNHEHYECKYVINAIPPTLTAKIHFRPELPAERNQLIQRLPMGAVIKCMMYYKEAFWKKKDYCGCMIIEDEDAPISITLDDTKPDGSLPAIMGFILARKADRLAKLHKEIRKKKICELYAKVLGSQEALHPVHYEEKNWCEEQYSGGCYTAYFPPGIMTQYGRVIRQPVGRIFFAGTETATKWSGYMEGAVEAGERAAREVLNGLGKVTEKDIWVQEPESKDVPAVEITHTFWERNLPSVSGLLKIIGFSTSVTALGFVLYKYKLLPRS

Target: Amine oxidase [flavin-containing] A (Homo sapiens, UniProt P21397)
Assay: Inhibition of human MAO-A using kynuramine/benzylamine as substrate

NC1CC1c1ccc(NC(=O)C(Cc2ccccc2)NC(=O)OCc2ccccc2)cc1 (stereo unspecified)
IC50: 1200 nM
